What all share (experiment): cells
The subject of test [1] is MDA-MB-231. The note with it: Homo sapiens, MDA-MB-231, 24 h.
Test [2] concerns MDA-MB-231. The following applies: Homo sapiens, MDA-MB-231, 72 h.
Another test has as its system MDA-MB-468. The note with it: Homo sapiens, MDA-MB-468, 72 h.
Test [3] relates to MDA-MB-231. The following applies: Homo sapiens, MDA-MB-231, 24 h. The source holds these as a separate data set.

The term IC50 denotes the concentration that inhibits the measured activity by half. As for `C/C=C(/C=O)[C@@H](C=O)CC(=O)OCCc1ccc(O)cc1`, the half-maximal inhibitory concentration (IC50) in the test on MDA-MB-231 [1] was found to be 18.2 µM; with MDA-MB-231 [2], 15 µM; with MDA-MB-468, 19.1 µM; with MDA-MB-231 [3] it was 7.5 µM.

The values are drawn from ChEMBL document CHEMBL3822450, “Novel c-Met inhibitory olive secoiridoid semisynthetic analogs for the control of invasive breast cancer” (Eur J Med Chem, 2016).
